EP1212309B1, “CASPASE INHIBITOR” (LG Chem Investment, Ltd., priority 1999, dated 2001)

Chains of the proteins cited; added tags and fusions are not shown. Residues count along the entry.
UniProt P42574, 29-175 limits assumed: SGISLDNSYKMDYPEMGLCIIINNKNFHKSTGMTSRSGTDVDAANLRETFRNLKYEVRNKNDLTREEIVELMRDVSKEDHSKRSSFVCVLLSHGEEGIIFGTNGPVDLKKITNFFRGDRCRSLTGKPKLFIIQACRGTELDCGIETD
UniProt P42574, 176-277 limits assumed: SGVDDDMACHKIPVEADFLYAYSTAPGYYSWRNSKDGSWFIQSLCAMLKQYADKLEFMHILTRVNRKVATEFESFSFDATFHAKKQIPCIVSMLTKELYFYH
UniProt P29466, 120-297 limits assumed: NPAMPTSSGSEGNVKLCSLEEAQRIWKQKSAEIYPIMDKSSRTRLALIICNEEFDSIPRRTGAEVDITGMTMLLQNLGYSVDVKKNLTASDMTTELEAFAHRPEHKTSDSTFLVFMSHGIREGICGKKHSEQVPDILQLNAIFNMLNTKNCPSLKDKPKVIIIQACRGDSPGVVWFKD
UniProt P29466, 317-404 limits assumed: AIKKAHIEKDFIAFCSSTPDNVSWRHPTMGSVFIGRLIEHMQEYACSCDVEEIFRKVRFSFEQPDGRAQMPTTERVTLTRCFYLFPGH

Tests used:
caspase-3 = caspase-3 (Homo sapiens, UniProt P42574); assay: Screening on caspases inhibiting activity (recombinant enzyme, fluorogenic AMC substrate); type: biochemical; conditions: Irreversible Inhibitors
Description: (§1) In the present experiment, recombinant caspases were purified from a transformed bacterium after human caspase genes were cloned into the expression vector pET, and then used in the experiment (Thornberry, N.A. et .al. Nature, 1992, 356, 768. Thombeny, N.A. Methods in Enzymology, 1994, 615.).
(§2) Enzymatic activity was measured by a known procedure (Walker N.P.C. et al., Cell 1994, 78, 343). Briefly, 10 ng of recombinant protein was mixed with 50 mM Tris(pH 7.0), 1mM DTT, 0.5 mM EDTA, 10% Glycerol buffer containing 1∼100 µM of enzyme substrate, Ac-YVAD-AMC or Ac-DEVD-AMC and then the changes by isolated AMC at 37°C were recorded. The inhibitory activity for caspases was calculated from the early enzyme reaction rate by measuring the changes with fluorescence excited at […] and emitted at 460 nm (Range; Ki<100nM).

caspase-1 = caspase-1 (Homo sapiens, UniProt P29466); assay: as above; type: biochemical; conditions: Irreversible Inhibitors
Description: as §1, §2

CC(C)[C@H](NC(=O)Cc1c[nH]c2ccccc12)C1=NOC(Cc2ccccc2)(C(=O)N[C@@H](CC(=O)O)C(=O)COC(=O)c2c(Cl)cccc2Cl)C1 (single isomer, unassigned)
Kobs/[I] for caspase-3 (caspase-3): 132 M⁻¹ s⁻¹ | Kobs/[I] for caspase-1 (caspase-1): 294000 M⁻¹ s⁻¹
